{
  "source": "patent US10946012B2",
  "about": "“Methods for inducing tumor regression, inhibiting tumor growth, and inducing apoptosis in breast tumors with geranylgeranyltransferase I inhibitors” (H. Lee Moffitt Cancer Center and Research Institute, Inc., priority 2009, dated 2021)",
  "target": "GGTase I (Homo sapiens, UniProt P49354+P53609)",
  "assay": "In vitro GGTase I activity assay ([3H]GGPP transfer to H-Ras-CVLL)",
  "details": "for IC50: read-out: IC50, inhibition of GGTase I activity, H-Ras-CVLL, [3H]GGPP",
  "procedure": "A brief discussion of exemplary materials and methods follows. In vitro FTase and GGTase I activity assays were performed. GGTase I and FTase activities from 60,000×g supernatants of human Burkitt's lymphoma (Daudi) cells (American Type Culture Collection (ATCC), Rockville, Md.) were assayed as described previously.",
  "data": [
    {"molecule": "Cc1[nH]cnc1CN1CCN(C(=O)N[C@@H](CC(C)C)C(=O)O)[C@@H](Cc2ccc(F)cc2)C1=O", "values": [
      {"measurement": "IC50", "result": 0.0071, "unit": "µM"}
    ]},
    {"molecule": "Cc1[nH]cnc1CN1CCN(C(=O)N[C@@H](CC(C)C)C(=O)O)[C@@H](Cc2cccc3ccccc23)C1=O", "values": [
      {"measurement": "selectivity towards inhibition of GGTase I versus FTase", "result": 340, "unit": "fold"},
      {"measurement": "IC50", "result": 0.014, "unit": "µM"}
    ]}
  ]
}
